Membrane permeability of cyclic peptides

Values of Townsend et al. 2020, doi:10.26434/chemrxiv.13335941.v1, as listed in CycPeptMPDB.

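Conditions beyond the assay type are not listed; see the original paper. The list need not hold all peptides of the study. Peptides that the database sets to -10, its floor, are left out.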

PAMPA measures passive passage through an artificial lipid membrane. Permeability is given as log10 of P in cm/s; higher (less negative) is more permeable.

The entry for CCCN1CC(=O)N(C)[C@H](CC(C)C)C(=O)N[C@@H](Cc2ccccc2)CC(=O)N2CCC[C@@H]2C(=O)N[C@H](CC(C)C)C(=O)N[C@@H](Cc2ccccc2)C(=O)N2CCC[C@H]2C1=O lists PAMPA -6.73 (log10 cm/s). CC(C)C[C@@H]1NC(=O)[C@@H](CC(C)C)NC(=O)[C@@H](C)NC(=O)[C@@H]2CCCN2C(=O)[C@H](Cc2ccccc2)NC(=O)[C@@H](CC(C)C)NC(=O)[C@H]2CCCN2C1=O is reported with PAMPA -6.07 (log10 cm/s). CC(C)C[C@@H]1NC(=O)[C@@H](CC(C)C)NC(=O)C[C@H](Cc2ccccc2)NC(=O)[C@H](Cc2ccccc2)NC(=O)[C@@H](CC(C)C)N(C)C(=O)[C@H]2CCCN2C1=O has PAMPA -5.38 (log10 cm/s). CC(C)C[C@H]1C(=O)N[C@@H](Cc2ccccc2)C(=O)N2CCC[C@@H]2C(=O)N(C)[C@@H](C)C(=O)N(C)[C@@H](CC(C)C)C(=O)N[C@@H](Cc2ccccc2)CC(=O)N2CCC[C@@H]2C(=O)N1C is reported with PAMPA -5.31 (log10 cm/s). For CC(C)C[C@@H]1NC(=O)[C@H](C)NC(=O)[C@H](Cc2ccccc2)NC(=O)[C@H](CC(C)C)N(C)C(=O)[C@H]2CCCN2C(=O)[C@H](CC(C)C)N(C)C1=O the data give PAMPA -5.07 (log10 cm/s). CC(C)C[C@@H]1NC(=O)C[C@H](Cc2ccccc2)NC(=O)[C@H](Cc2ccccc2)NC(=O)[C@@H](CC(C)C)NC(=O)[C@H]2CCCN2C(=O)[C@@H](CC(C)C)NC1=O has PAMPA -6.02 (log10 cm/s). CC(C)C[C@@H]1NC(=O)[C@@H](CC(C)C)NC(=O)C[C@H](Cc2ccccc2)NC(=O)[C@H]2CCCN2C(=O)[C@H](Cc2ccccc2)NC(=O)CN(Cc2ccccc2)C(=O)[C@@H]2CCCN2C1=O has PAMPA -5.67 (log10 cm/s).

The entry for CC(C)C[C@H]1NC(=O)[C@H](C)N(C)C(=O)[C@H]2CCCN2C(=O)[C@H](Cc2ccccc2)NC(=O)[C@H](CC(C)C)N(C)C(=O)[C@H]2CCCN2C(=O)[C@H](CC(C)C)N(C)C1=O lists PAMPA -5.05 (log10 cm/s). CC(C)C[C@H]1NC(=O)[C@H](CC(C)C)N(C)C(=O)[C@@H](C)N(C)C(=O)[C@@H]2CCCN2C(=O)[C@H](Cc2ccccc2)NC(=O)[C@H](CC(C)C)N(C)C(=O)[C@H]2CCCN2C1=O has PAMPA -5.05 (log10 cm/s). CC(C)C[C@@H]1C(=O)N2CCC[C@H]2C(=O)N[C@H](CC(C)C)C(=O)N[C@@H](Cc2ccccc2)C(=O)N2CCC[C@@H]2C(=O)N(C)[C@@H](C)C(=O)N(C)[C@H](CC(C)C)C(=O)N1C is reported with PAMPA -5.81 (log10 cm/s). For CC(C)C[C@@H]1NC(=O)[C@@H](CC(C)C)NC(=O)[C@@H](C)NC(=O)[C@H](Cc2ccccc2)NC(=O)[C@H](CC(C)C)N(C)C(=O)[C@@H]2CCCN2C1=O the data give PAMPA -6.31 (log10 cm/s). The entry for CC(C)C[C@@H]1C(=O)N[C@@H](Cc2ccccc2)C(=O)N2CCC[C@H]2C(=O)N(C)[C@@H](C)C(=O)N(C)[C@@H](CC(C)C)C(=O)N(C)[C@@H](CC(C)C)C(=O)N2CCC[C@@H]2C(=O)N1C lists PAMPA -5.31 (log10 cm/s). The entry for CC(C)C[C@@H]1NC(=O)[C@@H](C)NC(=O)[C@H](Cc2ccccc2)NC(=O)CN(Cc2ccccc2)C(=O)[C@H]2CCCN2C(=O)[C@@H](CC(C)C)N(C)C1=O lists PAMPA -5.90 (log10 cm/s). For CC(C)C[C@@H]1NC(=O)C[C@H](Cc2ccccc2)NC(=O)[C@H]2CCCN2C(=O)[C@H](Cc2ccccc2)NC(=O)CN(Cc2ccccc2)C(=O)[C@@H]2CCCN2C(=O)[C@H](CC(C)C)NC1=O the data give PAMPA -6.27 (log10 cm/s).

CC(C)C[C@@H]1C(=O)N2CCC[C@H]2C(=O)N(C)[C@H](CC(C)C)C(=O)N[C@@H](Cc2ccccc2)C(=O)N2CCC[C@@H]2C(=O)N(C)[C@H](C)C(=O)N(C)[C@@H](CC(C)C)C(=O)N1C is reported with PAMPA -5.44 (log10 cm/s). CC(C)C[C@@H]1NC(=O)[C@@H](CC(C)C)NC(=O)[C@H](C)N(C)C(=O)[C@H](Cc2ccccc2)NC(=O)CN(Cc2ccccc2)C(=O)[C@H]2CCCN2C1=O has PAMPA -5.79 (log10 cm/s). For CC(C)C[C@H]1C(=O)N[C@@H](Cc2ccccc2)C(=O)N2CCC[C@@H]2C(=O)N[C@@H](Cc2ccccc2)CC(=O)N(Cc2ccccc2)CC(=O)N[C@@H](Cc2ccccc2)CC(=O)N2CCC[C@@H]2C(=O)N1C the data give PAMPA -5.69 (log10 cm/s). For CC(C)C[C@@H]1C(=O)N2CCC[C@@H]2C(=O)N(C)[C@@H](CC(C)C)C(=O)N[C@@H](Cc2ccccc2)C(=O)N2CCC[C@@H]2C(=O)N(C)[C@H](C)C(=O)N(C)[C@@H](CC(C)C)C(=O)N1C the data give PAMPA -5.59 (log10 cm/s). For CC(C)C[C@@H]1NC(=O)[C@@H](CC(C)C)N(C)C(=O)[C@@H](C)NC(=O)[C@H]2CCCN2C(=O)[C@H](Cc2ccccc2)NC(=O)[C@H](CC(C)C)N(C)C(=O)[C@@H]2CCCN2C1=O the data give PAMPA -5.58 (log10 cm/s). The entry for CC(C)C[C@@H]1NC(=O)[C@H](CC(C)C)N(C)C(=O)[C@H](C)N(C)C(=O)[C@H]2CCCN2C(=O)[C@H](Cc2ccccc2)NC(=O)[C@H](CC(C)C)N(C)C(=O)[C@H]2CCCN2C1=O lists PAMPA -4.98 (log10 cm/s). For CCCN1CC(=O)N(C)[C@H](CC(C)C)C(=O)N[C@@H](CC(C)C)C(=O)N2CCC[C@@H]2C(=O)N(C)[C@@H](CC(C)C)C(=O)N[C@@H](Cc2ccccc2)C1=O the data give PAMPA -5.05 (log10 cm/s).

CC(C)C[C@@H]1NC(=O)C[C@H](Cc2ccccc2)NC(=O)[C@H](Cc2ccccc2)NC(=O)[C@@H](CC(C)C)NC(=O)[C@@H]2CCCN2C(=O)[C@@H](CC(C)C)NC1=O is reported with PAMPA -5.56 (log10 cm/s).